# The entries are a selection whose mix differs from that of the whole data set. Some results for these compounds are left out of this collection, so the calls shown say nothing about other tests. Calls of active or inactive are those of the source.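 How the source made its calls: active means inhibition above the mean of the plate negative controls plus 5 SD (cut at about 13% in these data); inactive means the rest.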
# Experiment: blockers of IgG-bead uptake by macrophages – imaging, J774A.1 cells, IgG beads, primary screen (AID 1029);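 further: phagocytic index as fraction of beads internalized from green versus red external bead signal; plate controls were DMSO negative control for no effect and cytochalasin-D positive control for full effect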
# Details: J774A.1 macrophage IgG-bead phagocytosis, at 5 µM, stronger effect = higher value
row,Compound,inhibition
1,CN(C)C1CCCC1OC(=O)C(O)(c1ccccc1)c1ccccc1 (stereo not drawn),inactive: -14%
2,CCN1CCCC(OC(=O)C2(O)c3ccccc3C=Cc3ccccc32)C1 (stereo not drawn),inactive: -0.18%
3,CN(C)c1cccc(C(=O)NCC2(N(C)C)CCCCC2)c1,inactive: -0.8%
